Source: PubChem BioAssay AID504766 (The Scripps Research Institute Molecular Screening Center, 2011)
The list shows a part of the results, in another mix than the full data. Some structures show a salt or complex split into parts, the way the source records it. The source made the active and inactive calls.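 How the source made its calls: active means inhibition above the mean over all tested compounds plus 3 SD (cut at about 4.2% in these data); inactive means the rest.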

Amino acid sequences for entries named in this document (tags omitted). Residues count along the entry.
UniProt P51843, 207-470 limits assumed: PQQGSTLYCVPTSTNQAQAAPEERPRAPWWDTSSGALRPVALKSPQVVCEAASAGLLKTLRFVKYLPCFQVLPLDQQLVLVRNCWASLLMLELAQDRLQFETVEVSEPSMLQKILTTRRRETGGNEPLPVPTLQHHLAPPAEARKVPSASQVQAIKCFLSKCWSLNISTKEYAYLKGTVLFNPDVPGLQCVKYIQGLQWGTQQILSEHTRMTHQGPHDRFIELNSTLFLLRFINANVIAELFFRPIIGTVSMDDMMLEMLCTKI

The compounds below were run against Nuclear receptor subfamily 0 group B member 1 (Homo sapiens) (UniProt P51843) (assay: DAX1 (NR0B1) inhibitors, primary screen, cell-based, HEK293, Gal4-DAX1, luciferase luminescence (AID 504766;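 further: 0% = DAX1-transfected cells with DMSO and 100% = empty-vector control cells with DMSO; inhibition shows as a rise in luminescence from relieved DAX1 repression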)). Details: HEK293 Gal4-DAX1 luciferase reporter, at 6.75 µM, active compounds read high.

Structure (SMILES) | inhibition
CP(=O)(Nc1ccccn1)Oc1ccc(Cl)cc1 (configuration not stated) | inactive: 0.29%
CCOP(C)(=S)SCC(=O)NC(C)C(=O)O (configuration not stated) | inactive: 0.82%
CCOC(=O)c1ccc(NP(C)(=O)Oc2ccc(OC)cc2)cc1 (configuration not stated) | inactive: -1.61%
CP(=O)(NC(=O)Nc1ccccc1)Oc1ccccc1 (configuration not stated) | inactive: 0.17%
CCc1ccc(OP(C)(=O)N2CCN(c3ccc([N+](=O)[O-])cc3)CC2)cc1 (configuration not stated) | inactive: -3.56%
Cc1cc(C)cc(OP(C)(=O)Nc2ccc(SC(F)(F)F)cc2)c1 (configuration not stated) | inactive: 0.15%
Cc1cccc(C)c1OP(C)(=O)Nc1ccc(SC(F)(F)F)cc1 (configuration not stated) | inactive: -1.1%
Cc1ccc(Nc2c([N+](=O)[O-])cc([N+](=O)[O-])cc2[N+](=O)[O-])cc1 | inactive: -0.14%
CP(=O)(Oc1ccccc1)OC(c1ccccc1)C(F)(F)F (configuration not stated) | inactive: 0.72%
COc1ccccc1OP(C)(=O)Nc1ccccc1 (configuration not stated) | inactive: 3.8%
CP(=O)(Nc1ccccc1Br)Oc1ccccc1 (configuration not stated) | inactive: -2.59%
CP(=S)(Nn1cnnc1)Oc1ccccc1 (configuration not stated) | inactive: -0.05%
COc1ccccc1OP(C)(=O)Nc1cc(Cl)ccc1C (configuration not stated) | inactive: -1.12%
COc1ccc(OP(C)(=O)Nc2cccc(F)c2)cc1 (configuration not stated) | inactive: -0.26%
Cc1cc(C)cc(OP(C)(N)=O)c1 (configuration not stated) | inactive: -0.52%
CCOC(=O)c1ccc(NP(C)(=O)Oc2ccccc2)cc1 (configuration not stated) | inactive: 0.33%
COc1ccccc1OP(C)(=O)Nc1ccc(C)cc1 (configuration not stated) | inactive: -0.35%
Cc1ccc(NP(C)(=O)Oc2ccccc2)c(C)c1 (configuration not stated) | inactive: -0.43%
CC(C)(C)c1ccc(OP(C)(=O)Nc2ccc(SC(F)(F)F)cc2)cc1 (configuration not stated) | inactive: -1.87%
Cc1cccc(C)c1OP(C)(N)=O (configuration not stated) | inactive: -1.58%
O=[N+]([O-])c1ccc2c(c1)C=Nc1ccccc1O2 | inactive: -1.33%
O=[N+]([O-])c1cc([N+](=O)[O-])c(Nc2cccnc2)c([N+](=O)[O-])c1 | inactive: -1.59%
CCN(CC)CCCOC(=O)C(O)(c1ccccc1)c1ccccc1 | active: 6.29%

Structure (SMILES) | inhibition
Cc1cc(C)cc(OP(C)(=O)Nc2ccccn2)c1 (configuration not stated) | inactive: -0.44%
CP(=O)(Nc1cccc(Br)c1)Oc1ccccc1 (configuration not stated) | inactive: 1.03%
Cc1ccc(C)c(NP(C)(=O)Oc2ccccc2)c1 (configuration not stated) | inactive: -1.35%
Cc1cc(C)cc(OP(C)(=O)Nc2ccc(C)cc2C)c1 (configuration not stated) | inactive: -0.59%
CCOC(=O)c1ccc(NP(C)(=O)Oc2cc(C)cc(C)c2)cc1 (configuration not stated) | inactive: -1.37%
COc1ccccc1OP(C)(=O)Nc1cccc(Br)c1 (configuration not stated) | inactive: -0.99%
CC1=NCCc2c1[nH]c1ccccc21.O=[N+]([O-])c1cc([N+](=O)[O-])c(O)c([N+](=O)[O-])c1 | inactive: -0.92%
O=C(O)c1cccc(Nc2c([N+](=O)[O-])cc([N+](=O)[O-])cc2[N+](=O)[O-])c1 | inactive: 3.65%
CCCOc1ccc(NP(C)(=O)Oc2ccc(Cl)cc2)cc1 (configuration not stated) | inactive: 0.99%
CP(=O)(Nc1ccc(SC(F)(F)F)cc1)Oc1ccccc1 (configuration not stated) | inactive: -1.99%
COc1ccccc1OP(C)(=O)Nc1c(C)cccc1C (configuration not stated) | inactive: -2.54%
CN1CCCCC1COC(=O)C1(O)c2ccccc2CCc2ccccc21 (configuration not stated) | inactive: 1.46%
CC1=C2N=C(C=C3N=C(C(C)=C4[N-][C@@](C)([C@@H]5N=C1[C@](C)(CCC(=O)NC[C@@H](C)OP(=O)([O-])O[C@H]1[C@@H](O)[C@@H](n6cnc7cc(C)c(C)cc76)O[C@@H]1CO)[C@H]5CC(N)=O)[C@@](C)(CC(N)=O)[C@@H]4CCC(N)=O)[C@@](C)(CC(N)=O)[C@@H]3CCC(N)=O)C(C)(C)[C@@H]2CCC(N)=O.[C-]#N.[Co+3] | inactive: -0.55%
O=[N+]([O-])c1cc([N+](=O)[O-])c(Nc2nnnn2CCO)c([N+](=O)[O-])c1 | inactive: -1.29%
CCOC(=O)C(CC)C1=NC(C)(C)Cc2ccccc21.O=[N+]([O-])c1cc([N+](=O)[O-])c(O)c([N+](=O)[O-])c1 (configuration not stated) | inactive: -1.41%
Cc1nc2ccc3ccccc3c2s1.O=[N+]([O-])c1cc([N+](=O)[O-])c(O)c([N+](=O)[O-])c1 | inactive: -0.54%
O=[N+]([O-])c1cc([N+](=O)[O-])c(-c2cnn(-c3ccccc3)c2)c([N+](=O)[O-])c1 | inactive: -2.87%
O=[N+]([O-])c1cc([N+](=O)[O-])c(-n2nnc3ccccc32)c([N+](=O)[O-])c1 | inactive: 0.4%
Cc1ccccc1NP(C)(=O)Nc1ccccc1C | inactive: -1.22%
CP(=O)(Nc1ccc2c(c1)OCCO2)Oc1ccccc1 (configuration not stated) | inactive: 0.2%
CCOP(C)(=S)SCC(=O)NC(C)(CC)C(=O)O (configuration not stated) | inactive: 0.37%
CP(=O)(Nc1ccc(SC(F)(F)F)cc1)Oc1ccc(F)cc1 (configuration not stated) | inactive: -1.83%
Cc1c(C(c2ccc3c(c2)OCO3)c2c(C)n(C)n(-c3ccccc3)c2=O)c(=O)n(-c2ccccc2)n1C.O=[N+]([O-])c1cc([N+](=O)[O-])c(O)c([N+](=O)[O-])c1 | inactive: -0.56%

Structure (SMILES) | inhibition
O=[N+]([O-])c1cc([N+](=O)[O-])c(NCC2CCS(=O)(=O)C2)c([N+](=O)[O-])c1 (configuration not stated) | inactive: -1.38%
Cc1cc(-c2cccc3ccccc23)c(C)cn1.O=[N+]([O-])c1cc([N+](=O)[O-])c(O)c([N+](=O)[O-])c1 | inactive: -1%
O=[N+]([O-])c1ccc(OP2(=O)COCCO2)cc1 (configuration not stated) | inactive: 2.03%
COc1ccc(NP(C)(=O)Oc2ccccc2OC)cc1 (configuration not stated) | inactive: 1.32%
CN(C)CCOC(=O)C(O)(c1ccccc1)C1CCCCC1 (configuration not stated) | inactive: -0.21%
COc1ccc(OP(C)(=O)Nc2cccc(Br)c2)cc1 (configuration not stated) | inactive: 1.05%
O=[N+]([O-])c1cc([N+](=O)[O-])c(OC2CCCCC2O)c([N+](=O)[O-])c1 (configuration not stated) | inactive: 0.09%
CCCCCOc1ccc(NP(C)(=O)Oc2ccc(Cl)cc2Cl)cc1 (configuration not stated) | inactive: 3.78%
CP(=O)(Nc1ccccc1)Oc1ccc(F)cc1 (configuration not stated) | inactive: -1.32%
CCN(CC)CCCOC(=O)C(O)(c1ccccc1)C1CCCCC1 (configuration not stated) | inactive: 0.22%
Cc1c([N+](=O)[O-])cc([N+](=O)[O-])c(Br)c1[N+](=O)[O-] | inactive: -0.37%
COc1ccc(OP(C)(=O)Nc2ccc(SC(F)(F)F)cc2)cc1 (configuration not stated) | inactive: 0.18%
CCOC(=O)c1ccc(NP(C)(=O)Oc2ccc(F)cc2)cc1 (configuration not stated) | inactive: -1.55%
COc1ccc2c(c1O)-c1c(O)c(OC)cc3c1[C@H](C2)[N+](C)(C)CC3.O=[N+]([O-])c1cc([N+](=O)[O-])c([O-])c([N+](=O)[O-])c1[O-] | inactive: -1.33%
O=C(OCCN1CCN(CCOCc2ccccc2)CC1)C(O)(c1ccccc1)c1ccccc1 | inactive: -1.36%
O=C(OC1CN2CCC1CC2)c1ccc([N+](=O)[O-])cc1 (configuration not stated) | inactive: 1.61%
CC(C)c1ccc(OP(C)(=O)Nc2ccc(SC(F)(F)F)cc2)cc1 (configuration not stated) | inactive: 0.49%
CP(=O)(Nc1ccccc1F)Oc1ccccc1 (configuration not stated) | inactive: -1%
O=[N+]([O-])c1cc([N+](=O)[O-])c(Nc2ccc(Cl)cc2)c([N+](=O)[O-])c1 | inactive: -3.51%
CCc1ccc(OP(C)(=O)O)cc1 | inactive: -0.55%
CP(=O)(Nc1ccccn1)Oc1ccccc1 (configuration not stated) | inactive: 0.44%
COc1ccccc1OP(C)(=O)Nc1ccc(C)cc1C (configuration not stated) | inactive: 0.12%
Cc1c(NP(C)(=O)Oc2ccc(C(C)C)cc2)c(=O)n(-c2ccccc2)n1C (configuration not stated) | inactive: 0.9%

Structure (SMILES) | inhibition
O=[N+]([O-])c1cc([N+](=O)[O-])c(Nc2ccccn2)c([N+](=O)[O-])c1 | inactive: -0.96%
CN(C)CCOC(=O)C(O)(c1ccccc1)C1CCCC1 (configuration not stated) | inactive: 1.14%
COc1ccc(OP(C)(=O)Nc2ccccn2)cc1 (configuration not stated) | inactive: -0.38%
COc1ccccc1OP(C)(=O)Nc1ccc(Br)cc1 (configuration not stated) | inactive: -0.93%
CP(=O)(Nc1ccc(Cl)cc1Cl)Oc1ccccc1 (configuration not stated) | inactive: -0.39%
CCCCCCCCCCCCCCCC1C[N+](C)(C)CCOP(C)(=O)O1 (configuration not stated) | inactive: 1.21%
CP(=O)(OCCOc1ccccc1)OCCOc1ccccc1 | inactive: 1.58%
COc1ccc(OP(C)(=O)Nc2ccccc2Br)cc1 (configuration not stated) | inactive: -2.34%
COc1ccccc1OP(C)(=O)Nc1ccc(C)c(C)c1 (configuration not stated) | inactive: -0.35%
O=C1C(O)=C([N+](=O)[O-])C(=O)C(O)=C1[N+](=O)[O-] | inactive: -0.78%
Cc1cc(C)cc(OP(C)(=O)Nc2cccc(C(F)(F)F)c2)c1 (configuration not stated) | inactive: -0.82%
CP(=O)(OC12CC3CC(CC(C3)C1)C2)OC12CC3CC(CC(C3)C1)C2 | inactive: 1.3%
CCOC(=O)c1ccc(NP(C)(=O)Oc2ccc(Cl)cc2)cc1 (configuration not stated) | inactive: -0.02%
CN(C)C(=O)c1c([N+](=O)[O-])cc([N+](=O)[O-])cc1[N+](=O)[O-] | inactive: 3.41%
CP(=O)(Nc1ccc(Cl)cc1)Oc1ccc(F)cc1 (configuration not stated) | inactive: -0.59%
COc1ccccc1OP(C)(=O)Nc1ccccc1Br (configuration not stated) | inactive: -1.19%
CC(C)(C)c1ccc(OP(C)(=O)O)cc1 | inactive: -0.19%
CP(=O)(Oc1ccccc1)N1CCOC1=O (configuration not stated) | inactive: 0.08%
CCc1ccc(OP(C)(=O)Nc2cccnc2)cc1 (configuration not stated) | inactive: -0.27%
COc1ccccc1OP(C)(=O)Nc1c(C)n(C)n(-c2ccccc2)c1=O (configuration not stated) | inactive: -0.25%
O=C(OCCCN1CCCC1)C(O)(c1ccccc1)C1CCCCC1 (configuration not stated) | inactive: 0.04%
CCN(CC)CC(O)COC(=O)C(O)(c1ccccc1)C1CCCCC1 (configuration not stated) | inactive: 1.11%
COc1ccc(OP(C)(=O)Nc2ccc(Br)cc2)cc1 (configuration not stated) | inactive: 1.2%
